Reference: patent EP1142883A1, “NOVEL HETEROCYCLIC COMPOUNDS AND DRUG COMPOSITIONS CONTAINING THE SAME” (Asahi Kasei Kabushiki Kaisha, priority 1998, dated 2000)

Tested on: Caco-2 cell
Assay: Permeability through human small intestine epithelium (Caco-2 cell layer)
Conditions: Caco-2 layer, cup side pH 6.5, base side pH 7.4, drug 20-40 µM, 37°C
Source text: Human colon adenocarcinoma, Caco-2 cell, when cultured, spontaneously differenciates to form a cell layer consisting of a polar single layer having microvillus similar to small intestine epithelial cell. The presence of tight junction has been found out in the membrane formed. Therefore, the above cell layer can be used as a model system of human small intestine epithelium and is recognized as the simplest system to evaluate the permeability through a membrane of a drug orally administered to human. The specific experimental method is as follows.
Before the cells reached confluence, DMEM was removed and the flask was washed with PBS (phosphate buffered saline, pH 7.2, Ca, Mg free (Gibco BRL)) and treated with trypsin/EDTA to peel off the cells, which were then harvested. […]
DMEMs in the cup side and base side of Transwell were removed and then replaced with a buffer for the permeation experiment (HBSS (Hanks Balanced Salt Solution, Gibco BRL), 10 mM Mes, pH 6.5 (mfd. by DOJINDO) or 10 mM Hepes, pH 7.4 (mfd. by DOJINDO) containing 25 mM glucose and 0.05% Tween 80). […] With additionally incubating at 37°C, 80 µL aliquot of the base side buffer was sampled with the passage of time to quantitate the amount of the drug permeated into the base side buffer. […]
In this connection, the quantitation of the drug was carried out with LC/MS or HPLC (detecting with fluorescence). […]

## (R)-[[6-[2-[2-(9H-carbazol-2-yloxy)ethylamino]-1-hydroxyethyl]-(2,3-dihydro-1,4-benzoxazin)-4-yl]sulfonyl]dimethylamine [Example 6]
  Permeability Coefficient Papp × 10^-6 (cm/s): 0.58 × 10^-6 cm/s
